From ChEMBL document CHEMBL4725311, “Discovery of potent, orally bioavailable in vivo efficacious antagonists of the TLR7/8 pathway” (Bioorg Med Chem Lett, 2020)

Tests used:
Assay type in all cases: functional, organism-based
[1] = biological target: T1, Toll-like receptor 7 (Mus musculus) (UniProt P58681); assay: In vivo antagonist activity at TLR7 in 129Sv mouse assessed as inhibition of ssRNAR0006-induced IL6 release at 5 mg/kg, po measured after 2 hrs
T1 sequence (whole entry): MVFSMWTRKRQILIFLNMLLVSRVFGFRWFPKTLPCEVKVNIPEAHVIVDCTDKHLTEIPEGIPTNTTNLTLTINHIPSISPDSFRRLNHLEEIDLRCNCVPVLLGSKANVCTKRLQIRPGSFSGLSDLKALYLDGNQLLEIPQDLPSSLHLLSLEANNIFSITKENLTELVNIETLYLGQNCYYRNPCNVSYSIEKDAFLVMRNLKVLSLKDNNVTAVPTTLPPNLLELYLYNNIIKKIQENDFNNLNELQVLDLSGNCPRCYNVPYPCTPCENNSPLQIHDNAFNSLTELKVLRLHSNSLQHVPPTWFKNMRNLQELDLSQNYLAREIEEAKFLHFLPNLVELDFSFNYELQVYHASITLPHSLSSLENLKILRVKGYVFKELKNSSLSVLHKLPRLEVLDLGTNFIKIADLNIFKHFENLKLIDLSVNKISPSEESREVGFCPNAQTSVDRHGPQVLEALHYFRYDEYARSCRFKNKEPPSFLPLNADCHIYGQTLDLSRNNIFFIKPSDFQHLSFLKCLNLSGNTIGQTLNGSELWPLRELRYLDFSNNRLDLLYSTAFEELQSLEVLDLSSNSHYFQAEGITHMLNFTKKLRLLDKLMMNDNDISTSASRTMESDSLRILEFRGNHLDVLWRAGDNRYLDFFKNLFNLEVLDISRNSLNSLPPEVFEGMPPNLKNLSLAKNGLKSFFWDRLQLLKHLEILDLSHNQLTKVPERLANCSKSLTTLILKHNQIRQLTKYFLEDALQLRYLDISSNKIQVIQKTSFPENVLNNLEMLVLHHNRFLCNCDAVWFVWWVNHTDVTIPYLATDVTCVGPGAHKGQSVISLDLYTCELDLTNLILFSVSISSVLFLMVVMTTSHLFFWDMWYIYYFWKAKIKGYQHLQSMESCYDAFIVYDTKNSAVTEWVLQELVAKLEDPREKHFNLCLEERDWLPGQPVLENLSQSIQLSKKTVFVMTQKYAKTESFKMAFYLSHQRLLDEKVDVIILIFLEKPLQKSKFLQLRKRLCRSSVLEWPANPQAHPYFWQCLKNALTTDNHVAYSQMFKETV

[2] = biological target: T1, Toll-like receptor 7 (Mus musculus); assay: In vivo antagonist activity at TLR7 in 129Sv mouse assessed as inhibition of ssRNAR0006-induced IFNalpha release at 5 mg/kg, po measured after 2 hrs
[3] = biological target: T1, Toll-like receptor 7 (Mus musculus); assay: In vivo antagonist activity at TLR7 in 129Sv mouse assessed as inhibition of ssRNAR0006-induced IL6 release at 30 mg/kg, ip measured after 2 hrs
[4] = biological target: T1, Toll-like receptor 7 (Mus musculus); assay: In vivo antagonist activity at TLR7 in 129Sv mouse assessed as inhibition of ssRNAR0006-induced IFNalpha release at 30 mg/kg, ip measured after 2 hrs

| INH [1] [nM] | INH [2] [nM] | INH [3] [nM] | INH [4] [nM] | Structure (SMILES) |
| --- | --- | --- | --- | --- |
| 259 | 259 | – | – | Cn1nc(-c2ccc(OCC34CCC(N)(CC3)CC4)c(F)c2)c2cnc(N)nc21 |
| – | – | 1540 | 1540 | Cn1nc(-c2ccc(OCCCC3CCNCC3)c(F)c2)c2cnc(N)nc21 |
